Patent US20240398779A1, “USE OF FACTOR B INHIBITORS FOR THE TREATMENT OF AGE-RELATED MACULAR DEGENERATION” (priority 2021, published 2024)

Experiment: Clinical phase 2 studies in PNH, IgAN, C3G
Type: in vivo, human
Conditions: 200 mg b.i.d., all tested indications (PNH, IgAN, C3G)

With CCO[C@H]1CCN(Cc2c(OC)cc(C)c3[nH]ccc23)[C@H](c2ccc(C(=O)O)cc2)C1 [iptacopan] the safety concerns was “without any safety concerns”.
